# AlphaSeq binding of Ab-14 light chain variants to a spike HR2 peptide

Reference: Engelhart et al. 2022, doi:10.1038/s41597-022-01779-4. File: FLAb, binding data.

Target peptide (SARS-CoV-2 spike, HR2 region): PDVDLGDISGINAS

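The parent was found by panning a naive human phage display library on the peptide. In library AAYL50, one, two or three CDR residues were substituted; doubles and triples were drawn at random. The assay is AlphaSeq: two haploid yeast populations carry antibody and antigen on their surface. Mating (16 h, 30 °C) was followed by selection of diploids and sequencing of their barcodes. Each replicate has its own calibration line, from reference interactions of the BCL2 family. Mating was done three times.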

Ab-14 is the parent antibody, in scFv form: VH, then the linker GGGGSGGGGSGGGGS, then VL. The heavy chain is unchanged in all variants.
VH: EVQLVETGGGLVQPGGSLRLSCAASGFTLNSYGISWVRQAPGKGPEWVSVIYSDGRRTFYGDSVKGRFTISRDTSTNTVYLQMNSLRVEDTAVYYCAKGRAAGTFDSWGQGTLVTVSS
VL: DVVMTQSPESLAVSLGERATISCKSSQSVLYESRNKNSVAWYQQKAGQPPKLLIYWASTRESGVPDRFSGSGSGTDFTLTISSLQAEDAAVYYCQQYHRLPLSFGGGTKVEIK

Changes read parent residue, position, new residue, counted from the first residue of the VL shown. Affinities are written as log10 Kd with Kd in nM; a lower number is a better binder. "nd" means that the variant was in the library but no mating with the target was seen in that replicate; the authors take this as a sign of poor binding, and no number exists. For reference, the parent read 0.65 as the reference entry and 1.68 as a member of this library. As a blank, each scFv also met three strains without target: over library AAYL50, 18% of these pairings were detected, typically at 4.19 and seldom below 2.99. The control count says in how many pairings with the empty strains this scFv gave a signal, with their mean in brackets.

| changes | replicates, log10 nM | empty controls |
|---|---|---|
| S38W S103W | 4.30 2.66 3.28 | 1 of 9 (3.81) |
| S26R A57Y T59S | nd nd 4.04 | 1 of 9 (2.24) |
| V29P K36A T59C | 2.64 2.88 2.74 | 3 of 9 (4.98) |
| Q27M L30N Y31H | 0.39 0.66 0.72 | 0 of 9 |
| S28P S33W E61C | 1.21 1.29 1.38 | 6 of 9 (4.27) |
| E32R T59C Q95L | nd 4.50 4.07 | 5 of 9 (4.65) |
| T59R R60W P101H | nd nd nd | 2 of 9 (3.69) |
| T59L S62T R99L | nd 3.10 3.56 | 2 of 9 (3.35) |
| L30M K36L Y97A | 3.91 2.68 3.30 | 2 of 9 (4.56) |
| K24P Y31W | nd nd nd | 0 of 9 |
| A57R T59W | nd 2.76 nd | 0 of 9 |
| S26R S28H L100V | 3.51 2.51 nd | 0 of 9 |
| Y31C S58K Y97I | nd nd nd | 0 of 9 |
| E32N A40Q L102K | nd 3.56 nd | 2 of 9 (4.31) |
| L30R S33K K36G | 1.47 1.76 1.55 | 0 of 9 |
| V39K A40H R60D | nd nd nd | 2 of 9 (4.31) |
| Q95H Q96T S103D | 2.09 1.94 2.04 | 3 of 9 (4.47) |
| S25I L30M S62V | -0.53 -0.21 -0.50 | 0 of 9 |
| L30E S62N | 0.40 0.82 0.67 | 1 of 9 (5.55) |
| S25Q Y31E E32L | 0.42 0.71 0.69 | 1 of 9 (5.39) |
| K36E V39D | nd 3.79 nd | 2 of 9 (3.39) |
| T59H L100R | nd nd nd | 2 of 9 (3.56) |
| N37M T59Y P101N | 1.95 1.64 2.03 | 1 of 9 (4.56) |
| Y31W Y97A S103M | 2.57 2.23 3.12 | 4 of 9 (3.43) |
| K24N V39G H98F | nd nd nd | 1 of 9 (3.62) |
| W56L T59V E61T | 2.34 2.14 2.15 | 4 of 9 (4.58) |
| Q27P V29G N35V | nd nd nd | 0 of 9 |
| N37T S58H S62D | 1.78 1.87 1.92 | 3 of 9 (3.86) |
| S26C S62D | 0.75 0.96 0.94 | 1 of 9 (2.83) |
| Y31D R34Q Q96R | 0.88 1.03 0.97 | 3 of 9 (3.81) |
| E32L S33N S38L | nd 3.06 2.55 | 2 of 9 (4.09) |
| R34Y L100A | nd 4.97 nd | 3 of 9 (3.90) |
| E32W L100H S103L | nd nd nd | 1 of 9 (3.41) |
| Y31L R34G R60D | nd nd nd | 0 of 9 |

Excerpt, the first 3 entries:

| changes | replicates, log10 nM | empty controls |
|---|---|---|
| S38W S103W | 4.30 2.66 3.28 | 1 of 9 (3.81) |
| S26R A57Y T59S | nd nd 4.04 | 1 of 9 (2.24) |
| V29P K36A T59C | 2.64 2.88 2.74 | 3 of 9 (4.98) |